We go through two compounds from patent publication US20250163048A1 (Tango Therapeutics, Inc., priority 2022, published 2025).

The test system of assay [1] is HAP1 MTAP-intact cell line. Kind of assay: SDMA in-cell western assay, HAP1 MTAP-intact. Conditions: Homo sapiens, HAP1, read-out: Hap1 MTAP intact IC50, SDMA in-cell western, HAP1 MTAP-intact cell line.
Assay [2] relates to MTAP-deleted cell line. The assay is described as follows: viability assay for the MTAP-deleted cell line. To be noted: Homo sapiens, HAP1, viability assay. It counts as cell-based.
Assay [3] deals with HAP1 MTAP-deleted cell line. Kind of assay: SDMA in-cell western assay, HAP1 MTAP-deleted. Conditions: for IC50 / IC90: Homo sapiens; for IC50: HAP1, read-out: Hap1 MTAP deleted IC50, SDMA in-cell western, HAP1 MTAP-deleted cell line; for IC90: HAP1, read-out: Hap1 MTAP deleted IC90, SDMA in-cell western, HAP1 MTAP-deleted cell line; for Hap1 MTAP intact/deleted ratio: IC50 ratio between HAP1 MTAP-intact and HAP1 MTAP-deleted cell line, SDMA in-cell western.

Structures are written as SMILES.

Regarding `C[C@H]1CC[C@H](c2ccc3sc(C4CCN(C)CC4)nc3c2)N(C(=O)C(=O)Nc2cncc3c(N)nccc23)C1` [Compound 41, N-(8-amino-2,7-naphthyridin-4-yl)-2-((2R,5S)-5-methyl-2-(2-(1-methylpiperidin-4-yl)benzo[d]thiazol-5-yl)piperidin-1-yl)-2-oxoacetamide], the IC50 was over 50 nM in assay [1], under 100 nM in assay [2] and under 5 nM in assay [3]. The IC90 in assay [3] is under 75 nM. For the same compound, in assay [3], the “Hap1 MTAP intact/deleted ratio” value was “A (“A” indicates an IC50 ratio greater than or equal to 30 fold)”.

With `C[C@H]1CC[C@H](c2ccc3cn(C)nc3c2)N(C(=O)C(=O)Nc2cnc(N)c3cn[nH]c23)C1` [Compound 180, N-(4-amino-1H-pyrazolo[4,3-c]pyridin-7-yl)-2-oxo-2-[(2R,5S)-5-methyl-2-(2-methylindazol-6-yl)-1-piperidyl]acetamide], in assay [1], the IC50 lay within 5 to 50 nM. Further, the IC50 in assay [2] was under 100 nM. For the same compound, in assay [3], the IC50 is under 5 nM, the IC90 was under 75 nM and the “Hap1 MTAP intact/deleted ratio” value was “B (“B” indicates an IC50 ratio greater than or equal to 15 fold but lower than 30 fold)”.
